Assay results reported in PubChem BioAssay AID461 (SRMLSC, 2006).
The entries are a selection whose mix differs from that of the whole data set. Some of these compounds have results that are not shown, active ones among them. Activity calls are given as the source filed them.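 Rule for the calls: active = Her2 level under about 52% in both replicate screens, with viability over 70% of control (limit read from the data); inconclusive = Her2 under the limit in one screen only, or viability under 70%; inactive = Her2 level above the set limit.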

Protein sequences, listed by entry. Tags and fused reporters are not part of them.
UniProt P04626, whole entry: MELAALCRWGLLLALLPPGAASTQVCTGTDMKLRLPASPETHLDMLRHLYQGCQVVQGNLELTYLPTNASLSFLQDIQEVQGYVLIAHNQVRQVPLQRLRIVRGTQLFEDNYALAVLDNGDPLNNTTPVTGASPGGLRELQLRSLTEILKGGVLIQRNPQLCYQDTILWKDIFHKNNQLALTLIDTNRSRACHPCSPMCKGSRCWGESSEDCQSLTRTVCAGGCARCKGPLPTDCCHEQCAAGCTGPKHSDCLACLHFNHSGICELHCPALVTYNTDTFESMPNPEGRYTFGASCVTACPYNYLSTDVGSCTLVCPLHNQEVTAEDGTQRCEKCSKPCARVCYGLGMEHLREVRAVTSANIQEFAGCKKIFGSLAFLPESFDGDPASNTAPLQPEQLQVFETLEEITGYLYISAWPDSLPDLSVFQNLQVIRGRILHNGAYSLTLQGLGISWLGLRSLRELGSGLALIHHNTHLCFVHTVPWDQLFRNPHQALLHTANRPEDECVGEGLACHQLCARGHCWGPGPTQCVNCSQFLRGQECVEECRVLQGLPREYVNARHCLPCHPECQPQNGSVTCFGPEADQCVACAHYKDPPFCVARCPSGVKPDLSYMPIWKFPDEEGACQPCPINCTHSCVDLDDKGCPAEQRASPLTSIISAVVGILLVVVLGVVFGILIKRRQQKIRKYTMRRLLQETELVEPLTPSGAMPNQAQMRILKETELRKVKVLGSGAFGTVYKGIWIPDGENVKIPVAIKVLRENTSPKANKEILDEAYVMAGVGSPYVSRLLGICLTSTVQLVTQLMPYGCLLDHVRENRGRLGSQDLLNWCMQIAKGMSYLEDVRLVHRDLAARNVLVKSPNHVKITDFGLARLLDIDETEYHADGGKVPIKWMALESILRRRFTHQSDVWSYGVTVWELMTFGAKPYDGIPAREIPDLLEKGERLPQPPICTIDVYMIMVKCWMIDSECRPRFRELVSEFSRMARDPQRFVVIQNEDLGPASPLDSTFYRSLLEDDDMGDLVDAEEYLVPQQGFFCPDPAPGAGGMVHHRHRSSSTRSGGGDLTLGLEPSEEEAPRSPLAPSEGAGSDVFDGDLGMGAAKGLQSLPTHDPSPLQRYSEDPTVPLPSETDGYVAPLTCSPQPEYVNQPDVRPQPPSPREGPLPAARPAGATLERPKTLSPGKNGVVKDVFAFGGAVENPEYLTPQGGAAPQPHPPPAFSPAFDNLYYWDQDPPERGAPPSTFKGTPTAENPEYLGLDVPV

These molecules were tested against Receptor tyrosine-protein kinase erbB-2 (Homo sapiens) (UniProt P04626) (assay: reducers of endogenous Her2 protein level, primary screen, SKBR3 breast tumor cells, AlphaScreen, ATP viability (AID 461;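 note: lower value means less Her2 protein in the cells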)). Details: 18-24 h, at 10 µM, active compounds read low.

Compound | Her2 level
O=C(OC1CN2CCC1CC2)C(CO)(c1ccccc1)c1ccccc1 (stereo unspecified) | inactive: 91%
